Measurements from patent US20230148214A1, “INDAZOLES AND AZAINDAZOLES AS LRRK2 INHIBITORS” (ESCAPE Bio, Inc., priority 2020, published 2023).

Sequences of proteins named here, by UniProt entry; tags and fusion partners are left off. A change or cut given only in a name is not applied to a line headed by its entry.
UniProt Q5S007, whole entry: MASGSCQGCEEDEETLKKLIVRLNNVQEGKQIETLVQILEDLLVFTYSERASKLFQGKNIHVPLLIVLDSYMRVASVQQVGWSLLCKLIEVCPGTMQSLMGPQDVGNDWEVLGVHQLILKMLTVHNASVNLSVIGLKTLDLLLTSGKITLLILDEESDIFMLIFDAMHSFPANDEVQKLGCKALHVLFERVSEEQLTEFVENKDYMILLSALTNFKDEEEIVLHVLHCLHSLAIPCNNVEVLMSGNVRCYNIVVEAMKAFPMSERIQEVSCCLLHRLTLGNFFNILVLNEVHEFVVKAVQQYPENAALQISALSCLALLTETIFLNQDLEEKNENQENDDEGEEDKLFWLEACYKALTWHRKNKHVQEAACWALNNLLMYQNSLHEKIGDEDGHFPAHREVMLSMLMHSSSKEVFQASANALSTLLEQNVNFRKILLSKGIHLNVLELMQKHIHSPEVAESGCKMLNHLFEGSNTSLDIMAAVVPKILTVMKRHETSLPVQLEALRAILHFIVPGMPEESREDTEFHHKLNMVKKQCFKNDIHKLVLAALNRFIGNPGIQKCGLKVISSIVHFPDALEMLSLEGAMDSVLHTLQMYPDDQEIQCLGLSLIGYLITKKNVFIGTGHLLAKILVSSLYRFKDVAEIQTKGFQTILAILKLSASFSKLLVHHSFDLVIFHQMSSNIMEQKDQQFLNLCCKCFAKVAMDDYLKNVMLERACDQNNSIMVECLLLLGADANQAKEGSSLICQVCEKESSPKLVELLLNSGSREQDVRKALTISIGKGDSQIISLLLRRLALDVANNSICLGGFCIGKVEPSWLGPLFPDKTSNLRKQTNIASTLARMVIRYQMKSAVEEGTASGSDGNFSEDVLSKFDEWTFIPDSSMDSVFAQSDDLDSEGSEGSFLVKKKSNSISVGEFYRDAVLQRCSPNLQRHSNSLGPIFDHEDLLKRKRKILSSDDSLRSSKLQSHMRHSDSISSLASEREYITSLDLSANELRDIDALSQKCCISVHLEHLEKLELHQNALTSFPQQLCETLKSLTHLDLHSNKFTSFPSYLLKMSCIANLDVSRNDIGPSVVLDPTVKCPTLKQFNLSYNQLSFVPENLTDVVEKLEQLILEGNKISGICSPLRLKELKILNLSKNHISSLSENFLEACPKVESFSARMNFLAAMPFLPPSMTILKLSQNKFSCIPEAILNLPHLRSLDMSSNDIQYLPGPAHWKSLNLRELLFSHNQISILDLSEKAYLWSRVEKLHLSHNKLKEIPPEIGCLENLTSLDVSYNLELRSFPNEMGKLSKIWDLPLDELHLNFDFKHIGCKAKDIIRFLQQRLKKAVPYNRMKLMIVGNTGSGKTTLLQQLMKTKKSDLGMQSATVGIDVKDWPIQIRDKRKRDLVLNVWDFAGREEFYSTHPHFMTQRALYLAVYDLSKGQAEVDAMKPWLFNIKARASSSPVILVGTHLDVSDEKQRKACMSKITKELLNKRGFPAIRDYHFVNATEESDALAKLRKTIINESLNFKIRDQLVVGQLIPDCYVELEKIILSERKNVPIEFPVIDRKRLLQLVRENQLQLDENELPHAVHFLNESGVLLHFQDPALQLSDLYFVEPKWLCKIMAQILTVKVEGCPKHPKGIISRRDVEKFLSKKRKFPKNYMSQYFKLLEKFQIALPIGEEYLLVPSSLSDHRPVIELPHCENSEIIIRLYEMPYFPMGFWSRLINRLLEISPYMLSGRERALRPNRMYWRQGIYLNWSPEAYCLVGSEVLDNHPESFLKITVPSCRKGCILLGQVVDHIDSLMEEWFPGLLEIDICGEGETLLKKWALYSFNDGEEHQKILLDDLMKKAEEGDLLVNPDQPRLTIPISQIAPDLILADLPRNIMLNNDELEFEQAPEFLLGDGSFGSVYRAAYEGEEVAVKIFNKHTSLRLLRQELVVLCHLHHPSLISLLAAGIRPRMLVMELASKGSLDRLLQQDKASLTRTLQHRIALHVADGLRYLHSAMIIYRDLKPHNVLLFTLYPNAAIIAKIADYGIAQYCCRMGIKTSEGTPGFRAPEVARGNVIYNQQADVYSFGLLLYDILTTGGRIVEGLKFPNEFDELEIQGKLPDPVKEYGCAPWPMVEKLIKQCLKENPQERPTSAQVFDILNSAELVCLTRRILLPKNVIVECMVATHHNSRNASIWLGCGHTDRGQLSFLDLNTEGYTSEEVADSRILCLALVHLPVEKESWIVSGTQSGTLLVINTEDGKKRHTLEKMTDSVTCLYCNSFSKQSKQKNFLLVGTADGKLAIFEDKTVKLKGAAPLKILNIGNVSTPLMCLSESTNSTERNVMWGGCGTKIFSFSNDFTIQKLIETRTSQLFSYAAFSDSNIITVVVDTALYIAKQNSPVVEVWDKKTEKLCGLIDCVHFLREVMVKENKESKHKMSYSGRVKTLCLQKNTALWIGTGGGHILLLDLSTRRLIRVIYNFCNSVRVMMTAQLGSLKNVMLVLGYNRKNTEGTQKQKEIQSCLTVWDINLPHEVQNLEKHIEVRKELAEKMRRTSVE
UniProt Q5S007, whole entry G2019S: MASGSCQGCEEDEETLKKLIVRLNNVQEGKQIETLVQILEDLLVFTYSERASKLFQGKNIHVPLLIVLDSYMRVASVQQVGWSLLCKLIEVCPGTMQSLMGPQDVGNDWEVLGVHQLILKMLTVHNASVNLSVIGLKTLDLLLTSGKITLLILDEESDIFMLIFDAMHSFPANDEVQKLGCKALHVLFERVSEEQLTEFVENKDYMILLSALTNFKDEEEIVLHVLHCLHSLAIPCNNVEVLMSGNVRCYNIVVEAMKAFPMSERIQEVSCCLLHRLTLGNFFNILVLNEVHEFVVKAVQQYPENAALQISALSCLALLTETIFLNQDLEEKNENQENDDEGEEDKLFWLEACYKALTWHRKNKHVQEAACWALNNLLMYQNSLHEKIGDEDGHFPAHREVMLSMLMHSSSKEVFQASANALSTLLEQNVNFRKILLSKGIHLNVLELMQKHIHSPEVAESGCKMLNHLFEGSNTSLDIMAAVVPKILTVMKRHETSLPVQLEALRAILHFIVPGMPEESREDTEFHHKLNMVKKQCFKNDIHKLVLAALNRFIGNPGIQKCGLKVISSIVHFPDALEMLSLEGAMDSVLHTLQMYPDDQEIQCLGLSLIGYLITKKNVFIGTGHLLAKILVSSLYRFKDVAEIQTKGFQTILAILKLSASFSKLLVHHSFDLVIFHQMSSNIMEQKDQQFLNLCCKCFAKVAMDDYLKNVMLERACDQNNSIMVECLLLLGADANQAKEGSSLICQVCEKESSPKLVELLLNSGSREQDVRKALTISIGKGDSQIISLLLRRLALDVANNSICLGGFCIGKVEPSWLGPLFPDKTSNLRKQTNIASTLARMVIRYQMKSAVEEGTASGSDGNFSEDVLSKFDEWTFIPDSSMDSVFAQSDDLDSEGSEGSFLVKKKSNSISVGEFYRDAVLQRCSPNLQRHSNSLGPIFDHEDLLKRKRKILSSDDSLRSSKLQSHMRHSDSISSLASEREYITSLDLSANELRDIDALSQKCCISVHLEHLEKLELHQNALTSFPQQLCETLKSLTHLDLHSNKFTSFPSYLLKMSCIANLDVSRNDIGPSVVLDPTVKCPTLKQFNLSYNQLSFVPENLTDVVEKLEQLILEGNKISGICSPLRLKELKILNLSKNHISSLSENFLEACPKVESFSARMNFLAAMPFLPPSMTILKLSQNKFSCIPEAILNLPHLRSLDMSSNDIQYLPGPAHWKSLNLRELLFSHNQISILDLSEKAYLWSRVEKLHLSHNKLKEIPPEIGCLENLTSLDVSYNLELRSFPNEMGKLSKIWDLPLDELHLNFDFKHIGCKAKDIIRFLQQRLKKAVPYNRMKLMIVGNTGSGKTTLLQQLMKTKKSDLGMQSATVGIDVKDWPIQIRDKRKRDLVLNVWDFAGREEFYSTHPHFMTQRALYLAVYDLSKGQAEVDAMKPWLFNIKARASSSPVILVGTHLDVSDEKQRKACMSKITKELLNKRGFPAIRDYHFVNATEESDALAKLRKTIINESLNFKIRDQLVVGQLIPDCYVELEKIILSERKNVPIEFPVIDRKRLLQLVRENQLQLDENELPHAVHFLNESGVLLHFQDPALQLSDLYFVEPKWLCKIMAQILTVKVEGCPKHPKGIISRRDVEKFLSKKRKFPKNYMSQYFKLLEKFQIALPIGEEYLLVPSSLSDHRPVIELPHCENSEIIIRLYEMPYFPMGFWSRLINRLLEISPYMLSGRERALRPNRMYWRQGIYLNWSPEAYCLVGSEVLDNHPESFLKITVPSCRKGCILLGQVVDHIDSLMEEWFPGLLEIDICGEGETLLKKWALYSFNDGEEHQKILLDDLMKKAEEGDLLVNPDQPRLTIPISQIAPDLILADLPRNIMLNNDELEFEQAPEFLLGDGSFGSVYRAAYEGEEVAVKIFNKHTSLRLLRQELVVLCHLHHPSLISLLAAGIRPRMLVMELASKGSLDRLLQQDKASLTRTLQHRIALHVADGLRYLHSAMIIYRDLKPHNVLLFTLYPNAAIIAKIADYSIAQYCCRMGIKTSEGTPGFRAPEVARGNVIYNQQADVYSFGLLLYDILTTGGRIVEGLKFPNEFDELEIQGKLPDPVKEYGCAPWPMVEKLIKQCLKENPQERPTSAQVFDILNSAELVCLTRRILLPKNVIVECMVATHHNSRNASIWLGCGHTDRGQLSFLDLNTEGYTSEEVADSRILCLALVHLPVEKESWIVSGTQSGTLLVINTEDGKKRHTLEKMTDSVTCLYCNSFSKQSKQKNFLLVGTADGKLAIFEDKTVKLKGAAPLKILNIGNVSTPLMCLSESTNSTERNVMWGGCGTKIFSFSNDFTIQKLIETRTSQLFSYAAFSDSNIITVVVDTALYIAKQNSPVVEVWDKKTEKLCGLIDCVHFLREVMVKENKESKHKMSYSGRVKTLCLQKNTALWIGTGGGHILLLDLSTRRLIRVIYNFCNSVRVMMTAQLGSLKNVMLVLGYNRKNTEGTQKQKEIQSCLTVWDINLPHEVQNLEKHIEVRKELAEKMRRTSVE

Assays:
LRRK2 WT = LRRK2 WT (Homo sapiens, UniProt Q5S007); assay: LRRK2 Kinase Activity Assay (LanthaScreen TR-FRET), wild type; conditions: read-out: LRRK2 WT IC50; recombinant wild type LRRK2, 25 μM ATP, 400 nM LRRKtide, 60 min; class symbols
LRRK2 G2019S = LRRK2 G2019S (Homo sapiens, UniProt Q5S007, G2019S); assay: LRRK2 Kinase Activity Assay (LanthaScreen TR-FRET), G2019S; conditions: read-out: LRRK2 G2019S IC50; recombinant G2019S-LRRK2, 25 μM ATP, 400 nM LRRKtide, 60 min; class symbols

Compound	IC50 (LRRK2 WT) [µM]	IC50 (LRRK2 G2019S) [µM]
N#Cc1ccc2c(c1)CCCC2Oc1ccc2[nH]nc(C(F)(F)F)c2c1 (single isomer, unassigned)	1 to 10	< 0.1
Cc1cc2[nH]nc(-c3cnco3)c2cc1NC1CCCc2cc(C#N)cnc21 (single isomer, unassigned)	< 0.1	< 0.1
